Measurements as given in PubChem BioAssay AID485358 (National Center for Advancing Translational Sciences (NCATS), 2010).
Only a part is listed here, and it is no random draw. Active and inactive are the calls of the source.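 How the source made its calls: active means activation over 3 SD above normal in the single-dose calcium agonist read (cut at about 30% in these data); inactive means the rest.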
Further: 0% is about no effect.

The chains behind the UniProt entries cited, without tags or fusion partners.
UniProt P14416, whole entry, looked up: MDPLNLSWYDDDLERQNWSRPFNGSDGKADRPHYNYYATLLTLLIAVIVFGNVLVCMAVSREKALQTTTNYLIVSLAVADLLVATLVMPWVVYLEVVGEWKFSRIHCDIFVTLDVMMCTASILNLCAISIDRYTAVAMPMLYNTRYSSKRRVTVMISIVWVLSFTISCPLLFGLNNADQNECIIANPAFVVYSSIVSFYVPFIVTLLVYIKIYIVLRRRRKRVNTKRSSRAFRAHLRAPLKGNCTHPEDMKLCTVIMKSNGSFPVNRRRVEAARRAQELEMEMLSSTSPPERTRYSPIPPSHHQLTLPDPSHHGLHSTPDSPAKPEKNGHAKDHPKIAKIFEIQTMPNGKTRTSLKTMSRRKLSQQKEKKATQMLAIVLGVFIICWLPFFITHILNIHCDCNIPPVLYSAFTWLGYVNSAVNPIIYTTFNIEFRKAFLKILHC

These compounds were tested against D(2) dopamine receptor (Homo sapiens) (UniProt P14416) (assay: HTS Assay for Allosteric Agonists of the Human D2 Dopamine Receptor: Primary Screen for Agonists). Settings: HEK293 T-REx D2 cells, calcium flux agonist mode; at 2 µM; stronger effect = higher value.
Description: NIH Chemical Genomics Center [NCGC] NIH Molecular Libraries Probe Centers Network [MLPCN] MLPCN Grant: NS064831-01 Assay Submitter (PI): David Sibley Dopamine receptors (DARs) are involved in the etiology and/or therapy of a number of neuropsychiatric and endocrine disorders. For instance, all receptor-based antiparkinsonian drugs work via stimulating the D2 DAR subtype whereas all FDA-approved antipsychotic agents are antagonists of this receptor. […] There are three different types of allosteric modulators that we are seeking, two of which will stimulate or augment receptor signaling, allosteric agonists and potentiators, while the third, allosteric antagonists, will attenuate receptor signaling. The present primary screening assay measures compound agonism by tracking calcium flux in a […], inducible Hek293 Trex D2 cell line.
Freshly passaged cells are plated in 1536 well black, clear bottom plates at a density of 4000 cells/well in 3 ul of complete media containing 1x tetracycline inducer. After an overnight incubation at […] in 5% CO2, cells are loaded with 2 ul of the no wash Calcium Assay Kit (ABD Bioquest) and incubated at room temperature for 30 to 90 minutes. Agonist read: A 10 cycle (1 second/cycle) baseline measurement is taken and then the FDSS online 1536 pintool delivers 23 nl of compound library (as well as dopamine controls) to the plate. The plate is measured for kinetically at 1 cycle/sec for 180 seconds and is considered to be the agonist portion of the assay (eg, compounds which activate a positive calcium response during this portion are flagged as potential agonists). Following the 180 second read, 1 ul of either an EC20 (positive modulation assay) or EC80 (negative modulation assay) is delivered by an onboard pipette head. Measurements are taken kinetically for an additional 180 seconds.
`O=C(/C=C/c1ccccc1)OC1CN2CCC1CC2` (stereo unspecified) was tested, and the activation was inactive: 0.597%.
In the case of `CN(C)C1(CNC(=O)c2ccc(S(C)(=O)=O)cc2)CCCCC1`, the activation is reported as inactive: -0.245%.
For `Cc1ccc(C(=O)OC2CN3CCC2CC3)cc1` (stereo unspecified), the activation was inactive: 0.785%.
With `CC1CCC(C(C)C)C(OP(=O)(Nc2ccccn2)c2ccccc2)C1` (stereo unspecified) the activation was inactive: 2.12%.
`Cc1nn(-c2ccccc2)c2c1P(=O)(N1CCOCC1)N(C)C(c1ccccc1)=N2` (stereo unspecified) was tested, and the activation was inactive: -0.609%.
For `O=[As](O)(c1cccs1)c1cccs1`, the activation was inactive: -0.463%.
With `Cc1ccc(OCC(=O)OC2CN3CCC2CC3)cc1` (stereo unspecified) the activation was inactive: -0.198%.
With `O=P1(Nc2ccc(Br)cn2)COc2ccccc2OC1` the activation was inactive: 3.73%.
For `Nc1cccc([As](=O)(O)c2ccccc2)c1`, the activation was inactive: -0.626%.
`O=P1(Nc2ncccn2)COc2ccccc2OC1` was tested, and the activation was inactive: -1.54%.
For `Cc1cc(SC(NC(=O)c2ccccc2)C(Cl)(Cl)Cl)nc(C(C)C)n1` (stereo unspecified), the activation was inactive: -0.758%.
`CCCCOc1ccc(C(=O)NCC2(N3CCCCC3)CCCCC2)cc1OC` was tested, and the activation was active: 33.2%.
For `CCOC(=O)Nc1ccc([As](=O)(O)O)c(O)c1`, the activation was inactive: 0.376%.
With `O=[N+]([O-])c1ccc(Nc2ccc(Oc3ccc([N+](=O)[O-])cc3[N+](=O)[O-])cc2)c([N+](=O)[O-])c1` the activation was inactive: 0.762%.
`O=P(Nc1ccccn1)(c1cccc2ccccc12)c1cccc2ccccc12` was tested, and the activation was inactive: 5.52%.
With `CCOC(=O)Nc1cccc([As](=O)(O)O)c1` the activation was inactive: 0.587%.
With `O=C(Nc1ccncc1[N+](=O)[O-])c1ccc([N+](=O)[O-])cc1[N+](=O)[O-]` the activation was inactive: 2.27%.
For `O=C(COc1ccccc1)OC1CN2CCC1CC2` (stereo unspecified), the activation was inactive: 0.323%.
`COP1(=S)c2c(C)nn(CCC#N)c2N=C(c2ccc(F)cc2)N1C` (stereo unspecified) was tested, and the activation was inactive: -2.31%.
With `CCC(C)N(CC(C)C)C(=S)SC(NC(C)=O)C(Cl)(Cl)Cl` (stereo unspecified) the activation was inactive: -0.308%.
`CCOC(=O)c1ccc(NC(=O)C(C)(CCl)SC)cc1` (stereo unspecified) was tested, and the activation was inactive: -0.0938%.
In the case of `O=C(OC1CN2CCC1CC2)c1cccc([N+](=O)[O-])c1` (stereo unspecified), the activation is reported as inactive: 1.48%.
With `COc1cc(I)ccc1[As](=O)(O)O` the activation was inactive: 0.852%.
`COc1ccc2nc(NP(=O)(c3ccccc3)c3ccccc3)sc2c1` was tested, and the activation was inactive: 0.552%.
With `Cc1cc(=O)[nH]c(N[N+](=O)[O-])n1` the activation was inactive: 5.99%.
In the case of `O=C(OC1CN2CCC1CC2)C12CC3CC(CC(C3)C1)C2` (stereo unspecified), the activation is reported as inactive: 1.46%.
For `Cc1c2c(nc3ccccc13)SC(C(Cl)Cl)C2` (stereo unspecified), the activation was active: 41.5%.
In the case of `COc1ccc(N/C(=N/P(=O)(N2CCOCC2)N2CCOCC2)N2CCOCC2)cc1`, the activation is reported as inactive: 0.053%.
`Cc1ccc2nc3c(c(C)c2c1)CC(C(Cl)Cl)S3` (stereo unspecified) was tested, and the activation was inactive: 9.4%.
`Cc1ccc(OP(=O)(Nc2ccc([N+](=O)[O-])cn2)Oc2ccc(C)cc2)cc1` was tested, and the activation was inactive: -0.655%.
With `O=[As](O)(c1ccc(O)cc1)c1ccccc1O` the activation was inactive: 0.601%.
`C[As](=O)(O)c1cccc(C(=O)O)c1` was tested, and the activation was inactive: 0.167%.
`O=[N+]([O-])c1cc([N+](=O)[O-])c(-c2ccn[nH]2)s1` was tested, and the activation was inactive: -0.883%.
With `CC(C)NC(=O)NP(=O)(Oc1ccccc1)Oc1ccccc1` the activation was inactive: 0.577%.
For `CCN(CC)C(=S)SC(NC=O)C(Cl)(Cl)Cl` (stereo unspecified), the activation was inactive: 0.247%.
For `CC(C)c1ccc(OP(=O)(Nc2ccccn2)Oc2ccccc2F)cc1` (stereo unspecified), the activation was inactive: -0.68%.
